Assay results as given in US20110251085A1, “IN VITRO METHOD TO DETERMINE WHETHER A DRUG CANDIDATE ACTIVE AGAINST A TARGET PROTEIN IS ACTIVE AGAINST A VARIANT OF SAID PROTEIN” (VIVALIS, priority 2008, published 2011).

Test system: NS5BΔ21 P495L mutant
Assay: 3D-Screen-NS5B mutant profiling, Hela cells, P495L
Format: cell-based, HCV genotype 1b
Details: n=2
Procedure: Percentages of reporter's inhibition were represented for cells incubated with a specific NS5B inhibitors at increasing concentrations for 24 hours.
Transfections were performed for 2 hours in 100 mm dishes in 2 to 4 million cells with 5 to 20 ug of total DNA complexed to jetPEI (PolyPLus transfection, Illkirch, France) with a N/P ratio of 8 The optimal ratio between the plasmids encoding for the luciferase reporter, the target and the selected 3Dsensor was: 3 ug/1 ug/0.5 ug. Cells were dissociated and 25000 cells per well were seeded in 96 well culture treated plates (BD Biosciences, Erembodegem, Belgium).
Cell culture supernatant was discarded and 100 ul of Lysis buffer were added to each well. Following […] of vigorous shaking, the lysate was transferred to white opaque 96 well-plates and 100 ul of Luciferin buffer were added. Chemi-luminescence measurement was performed immediately using a Microlumat LB96 luminometer (Berthold, Thoiry, France) with 1 or 10 sec integration time.
After incubation for 24 hours with increasing concentrations of cVVS023477 (a compound belonging to the Benzothiadiazin family) or cVVS-023476 (a compound belonging to the Indol N Acetamid family), luciferase expression was measured.

## CCN(CC)C1CCN(C(=O)Cn2c(-c3ccc(Cl)cc3)c(C3CCCCC3)c3ccc(C(=O)O)cc32)CC1 [cVVS-023476, 1-{[6-Carboxy-2-(4-chlorophenyl)-3-cyclohexyl-1H-indol-1-yl-]acetyl}-N,N-diethylpiperidin-4-aminium Chloride]
  increase of IC50 versus native NS5B: at least 10 fold
